Apparent affinities of Ab-14 variants for a coronavirus HR2 peptide

Source: Engelhart et al. 2022 (doi:10.1038/s41597-022-01779-4), MIT Lincoln Laboratory and A-Alpha Bio; data file from the FLAb repository.

Binding partner: SARS-CoV-2 spike HR2 peptide, sequence PDVDLGDISGINAS.

The variants keep the light chain, the linker and the frameworks of Ab-14 (scFv order VH, a 15-residue (Gly4Ser)3 linker, VL).
VH: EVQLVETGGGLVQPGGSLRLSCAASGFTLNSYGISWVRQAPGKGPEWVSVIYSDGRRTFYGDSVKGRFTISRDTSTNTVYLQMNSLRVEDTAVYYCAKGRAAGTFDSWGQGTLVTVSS
VL: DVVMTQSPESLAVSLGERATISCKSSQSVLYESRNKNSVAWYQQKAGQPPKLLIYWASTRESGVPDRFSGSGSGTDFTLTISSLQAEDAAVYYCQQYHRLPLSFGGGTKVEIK

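The parent was found by panning a naive human phage display library on the peptide. AAYL49 was designed without a model: most single CDR substitutions and a random sample of double and triple ones. AlphaSeq pools MATa yeast showing the antibodies with MATalpha yeast showing the peptide. Pairs that bind mate more often; barcode pairs of the diploids are counted by sequencing. Scores were corrected for input abundance and mapped to Kd with protein pairs of known affinity run in the same pool. Each pool was mated in three replicate cultures.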

Variants are written as CDR1, CDR2 and CDR3 of the heavy chain (limits as in the source). Parent: GFTLNSYGIS, VIYSDGRRTFYGDSVK, GRAAGTFDS. This list gathers variants with a substitution at G99 (VH, numbered from residue 1). The read-out is the apparent dissociation constant on a log10 scale (nM): the lower, the stronger. A pair that was not seen in that replicate is written "nd"; this usually means weak binding, but a binder can also be missed. Parent in this assay: reference entry 0.65, copy in this library 4.11 (one replicate of three). Background: pairings of library AAYL49 with three empty control strains gave a value in 15% of cases (median 4.06, 5th percentile 2.83). Values in that range, when seen in few replicates, are hard to tell from nonspecific mating.

For GVTLNSYGIS | VIYSDGRRTFYGDSVK | ARAAGTFDS, the assay gave nd, nd, nd. With GFTLNSYGIS | FIYSDGRRTFYGDSVS | CRAAGTFDS the result was nd, nd, nd. The variant GFTLNSYGIS | VIYSDGRRTFYGDSDK | LRAAGTFDS gave 2.98, nd, nd. With GPTLNSYGDS | VIYSDGRRTFYGDSVK | LRAAGTFDS the result was nd, nd, nd. The variant GFTLNSHGIS | VIYSDGRRTFYGDGVK | ARAAGTFDS showed 2.47, 2.20, 2.52. The variant GFTLNSYGIS | VIYSDGRRTFYGDSVL | MRAAGTGDS gave 1.28, 1.83, 1.56.

With GFTLNCYGIS | RIYSDGRRTFYGDSVK | ARAAGTFDS the result was nd, nd, nd. With GWTLNSYGIS | VIYSDGRRTFYGDSVK | DRAAGTGDS the result was nd, nd, nd. The variant GFTLNSYGIS | VIYSDGRRTFYGDSQK | ARAAMTFDS showed nd, nd, nd. The variant GFTLNSYGIS | VIYSDGRRTFNGDSVK | KRAAGEFDS gave nd, nd, nd. The variant GFTLNSYGIS | VIYSDGRWTFYGISVK | QRAAGTFDS gave nd, nd, nd. With GFTLNSYGIS | VIYSDGRRTFHGDSCK | QRAAGTFDS the result was nd, nd, nd.

For GFTLNSYGIS | VIYSDGRRTFYGDSKK | NRAAGTNDS, the assay gave nd, nd, nd. The variant GFTLNSYGIS | VIYSDGRRTFYGDSYK | YRAAGTFDS showed nd, 4.23, nd. The variant GFTLNSYGIS | VIYSDGRRTFYGDSVK | WRAAGTDDS showed 1.50, 1.74, 1.32. The variant GFTLNSYGIS | VIYSDGRRTFYGDSVL | VRAAGQFDS gave 6.48, 4.30, nd. The variant GFLLNSYGIS | VIYSDGRRTFYYDSVK | TRAAGTFDS showed nd, nd, 4.25. The variant GFTLKSYGIS | VIYSDGRRTCYGDSVK | DRAAGTFDS showed nd, nd, nd.

With GFTLNSYGIS | VIYSSGRRTHYGDSVK | ERAAGTFDS the result was nd, nd, nd. For GFTLNSYGIS | VIYSDGRRTFYGDNVK | SRAAGTFDS, the assay gave 4.72, nd, nd. The variant GFTLNSYGIS | VIYSDGRRTFHGDSVK | SKAAGTFDS showed 2.49, 2.52, 2.52. The variant GFTMNSYGIS | VIYADGRRTFYGDSVK | CRAAGTFDS gave 1.49, 1.25, 1.81. For GFTLNSFGIS | VIYSDGRRTFYGISVK | NRAAGTFDS, the assay gave 3.69, 3.83, nd. The variant GFTLNSYGIS | TKYSDGRRTFYGDSVK | ARAAGTFDS gave nd, nd, nd.

The variant GFTLNSYGSS | VIYSDGRRTFYGDSVK | VRAAGTFDS gave nd, nd, nd. The variant GFTGNSYGIS | VIYSDLRRTFYGDSVK | IRAAGTFDS showed nd, nd, nd. For GFTLNSYGIS | VIYSDGDRTFYGDSVK | DRAAGTQDS, the assay gave 1.27, 1.39, 1.39. For GFTLNSYGES | VIYSDGRRTFYGDSVK | MRQAGTFDS, the assay gave nd, nd, nd. The variant GFTLNSYGIS | VIYSKGRRTFYGDSVK | SRAAGTHDS showed nd, nd, 3.54. The variant GFTLNCYNIS | VIYSDGRRTFYGDSVK | QRAAGTFDS gave 3.50, nd, 6.11.

For PFTLNSYGIS | VIKSDGRRTFYGDSVK | NRAAGTFDS, the assay gave nd, nd, nd. The variant GFTLNSYGPS | VIYSDGRRTFYGDSVK | QRAIGTFDS gave nd, nd, nd. The variant GSTLNSYGIS | VIYSDGRRTFYGDSVK | CRAFGTFDS gave 2.76, nd, nd. With GFTLNSYGIS | VIYSMGRRTFYGDSVK | IRAAGSFDS the result was nd, nd, 2.74. The variant GFTLNSYGIS | MIYSDGRRTFYGDSVK | IRAAGTFDS gave 5.65, 4.71, 6.51. The variant GFTLNSYFIS | VIYSDGRRTFYGDSVK | VRAAGTFDS showed nd, nd, nd.

For CFTFNSYGIS | VIYSDGRRTFYGDSVK | SRAAGTFDS, the assay gave 3.76, 4.26, 4.45. The variant GFTLNSYGIS | VIYSDGRRTFYFFSVK | VRAAGTFDS showed nd, nd, nd. For GFTLNSYGYS | VIYSDGRRTFYGDTVK | TRAAGTFDS, the assay gave nd, nd, nd. With GFTLNSYGIA | VIYSDGRRTFYGDSVK | TRAAGTFSS the result was 4.11, nd, nd. The variant GFTLNSYGIN | VIYSDGWRTFYGDSVK | MRAAGTFDS showed nd, nd, nd. With GFALNSYGIS | VIYSDFRRTFYGDSVK | KRAAGTFDS the result was nd, nd, nd.

The variant GFTLNSLGIS | VIYSDGRRTFYGDSVK | SRAAGTEDS gave nd, 4.16, 4.69. The variant GFTLNSKGIS | VIYSDGRRTFYGDSVK | ERAAGTFPS gave nd, nd, nd. For GFTLNSYGIS | VIYSDGRRLFYGDMVK | DRAAGTFDS, the assay gave nd, nd, nd. The variant GFTLNSYGIS | VIYSDGRYTFYGDSVK | RRAAKTFDS gave nd, nd, nd. With GFTLNSYGNS | VIYYDGRRTFYGDSVK | IRAAGTFDS the result was nd, nd, nd. For GFCLNSYGIS | VIYSDGRRTFYGDSVK | NRMAGTFDS, the assay gave nd, nd, nd.

The variant SFTLNSYGIS | VIYSDGRNTFYGDSVK | VRAAGTFDS gave nd, 4.39, nd. The variant GFTLNSYDIS | VIYSDGRRTIYGDSVK | IRAAGTFDS showed nd, 3.54, nd. For GFTLNSYGIS | VIYSDGRRTFYDDSVK | SRAAGTFDS, the assay gave nd, nd, nd.

The 6 strongest on average among those seen in every replicate, once more:

{"CDR-H1": "GFTLNSYGIS", "CDR-H2": "VIYSDGDRTFYGDSVK", "CDR-H3": "DRAAGTQDS", "replicates, log10 nM": "1.27, 1.39, 1.39"}
{"CDR-H1": "GFTMNSYGIS", "CDR-H2": "VIYADGRRTFYGDSVK", "CDR-H3": "CRAAGTFDS", "replicates, log10 nM": "1.49, 1.25, 1.81"}
{"CDR-H1": "GFTLNSYGIS", "CDR-H2": "VIYSDGRRTFYGDSVK", "CDR-H3": "WRAAGTDDS", "replicates, log10 nM": "1.50, 1.74, 1.32"}
{"CDR-H1": "GFTLNSYGIS", "CDR-H2": "VIYSDGRRTFYGDSVL", "CDR-H3": "MRAAGTGDS", "replicates, log10 nM": "1.28, 1.83, 1.56"}
{"CDR-H1": "GFTLNSHGIS", "CDR-H2": "VIYSDGRRTFYGDGVK", "CDR-H3": "ARAAGTFDS", "replicates, log10 nM": "2.47, 2.20, 2.52"}
{"CDR-H1": "GFTLNSYGIS", "CDR-H2": "VIYSDGRRTFHGDSVK", "CDR-H3": "SKAAGTFDS", "replicates, log10 nM": "2.49, 2.52, 2.52"}